From PubChem BioAssay (NCI)
Some salts and complexes are drawn in separate pieces, as the source files them; their charges need not balance.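 The compound was tested at five concentrations on cells cultured in 96-well plates, with a 48-hour exposure period. Abbreviation: GI50, concentration required for 50% inhibition of growth. TGI: total growth inhibition.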

Assays:
Assay in all cases: DTP human tumour cell line panel, 48 h
[1] = tested on: HOP-92 NSCLC
[2] = tested on: HCC-2998 colon
[3] = tested on: IGROV1 ovarian
[4] = tested on: DLD-1 colon
[5] = tested on: ACHN renal
[6] = tested on: KM12 colon
[7] = tested on: DMS 114 small cell lung
[8] = tested on: NCI-H322M lung
[9] = tested on: SNB-78 CNS
[10] = tested on: SF-539 CNS
[11] = tested on: NCI-H226 lung
[12] = tested on: HT29 colon
[13] = tested on: MALME-3M melanoma
[14] = tested on: RXF 393 renal
[15] = tested on: SNB-19 CNS
[16] = tested on: SK-MEL-5 melanoma
[17] = tested on: HL-60(TB) leukemia
[18] = tested on: OVCAR-4 ovarian
[19] = tested on: 786-0 renal
[20] = tested on: KM20L2 colon
[21] = tested on: SF-295 CNS
[22] = tested on: CCRF-CEM leukemia
[23] = tested on: OVCAR-5 ovarian
[24] = tested on: NCI-H522 lung
[25] = tested on: A549 NSCLC
[26] = tested on: UACC-257 melanoma
[27] = tested on: DMS 273 small cell lung
[28] = tested on: HCT-116 colon
[29] = tested on: NCI-H23 lung
[30] = tested on: SK-MEL-2 melanoma
[31] = tested on: OVCAR-3 ovarian
[32] = tested on: UACC-62 melanoma
[33] = tested on: M14 melanoma
[34] = tested on: UO-31 renal
[35] = tested on: HOP-18 NSCLC
[36] = tested on: NCI-H460 lung
[37] = tested on: LOX IMVI melanoma
[38] = tested on: SK-MEL-28 melanoma

Q: What does the source list for [Au+].[N-]=[N+]=N.c1ccc([PH+](c2ccccc2)c2ccccc2)cc1?
A: GI50 [1]: 2.42 µM; TGI [1]: 5.43 µM; GI50 [2]: 9.45 µM; TGI [2]: 22.4 µM; GI50 [3]: 2.49 µM; TGI [3]: 7.19 µM; GI50 [4]: 1.8 µM; TGI [4]: 4.39 µM; GI50 [5]: 4.45 µM; TGI [5]: 11.8 µM; GI50 [6]: 12.5 µM; TGI [6]: 40.4 µM; GI50 [7]: 1.57 µM; TGI [7]: 4.13 µM; GI50 [8]: 15.4 µM; TGI [8]: 29.5 µM; GI50 [9]: 7.31 µM; TGI [9]: 69.2 µM; GI50 [10]: 10.4 µM; TGI [10]: 25.7 µM; GI50 [11]: 6.63 µM; TGI [11]: 20.8 µM; GI50 [12]: 9.79 µM; TGI [12]: 37 µM; GI50 [13]: 1.52 µM; TGI [13]: 3.07 µM; GI50 [14]: 1.16 µM; TGI [14]: 2.57 µM; GI50 [15]: 2.4 µM; TGI [15]: 7.83 µM; GI50 [16]: 1.28 µM; TGI [16]: 2.88 µM; GI50 [17]: 2.06 µM; TGI [17]: 6.05 µM; GI50 [18]: 1.87 µM; TGI [18]: 5.55 µM; GI50 [19]: 1.79 µM; TGI [19]: 3.69 µM; GI50 [20]: 9.96 µM; TGI [20]: 35.5 µM; GI50 [21]: 11.7 µM; TGI [21]: 84.9 µM; GI50 [22]: 0.736 µM; TGI [22]: 3.19 µM; GI50 [23]: 15.1 µM; TGI [23]: 29.2 µM; GI50 [24]: 1.17 µM; TGI [24]: 2.64 µM; GI50 [25]: 10.1 µM; TGI [25]: 50.3 µM; GI50 [26]: 1.83 µM; TGI [26]: 5.94 µM; GI50 [27]: 10.5 µM; GI50 [28]: 3.39 µM; TGI [28]: 12.5 µM; GI50 [29]: 2.46 µM; TGI [29]: 7.73 µM; GI50 [30]: 2.53 µM; TGI [30]: 7.7 µM; GI50 [31]: 2.9 µM; TGI [31]: 8.04 µM; GI50 [32]: 1.65 µM; TGI [32]: 4.45 µM; GI50 [33]: 1.76 µM; TGI [33]: 4.36 µM; GI50 [34]: 12 µM; TGI [34]: 24.3 µM; GI50 [35]: 2.15 µM; TGI [35]: 4.28 µM; GI50 [36]: 17.3 µM; TGI [36]: 73.4 µM; GI50 [37]: 2.39 µM; TGI [37]: 7.73 µM; GI50 [38]: 1.14 µM; TGI [38]: 4.49 µM
